Measured fraction unbound values of organic chemicals

Values as listed in the OPERA 2.9 repository of K. Mansouri.

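The numbers are reported measurements, compiled and curated for the OPERA QSAR suite. A listed value is a point estimate from one report or more. How each value was measured is not recorded, so precision varies. A value may pool stereoisomers or salt forms, and the file does not say which form was measured. Some entries may be limits or estimates that an upstream database listed as plain numbers.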

The unbound fraction in human plasma runs from 0 (all bound) to 1 (all free).

For CN(C)c1nc(N(C)C)nc(N(C)C)n1 [Hexamethylmelamine] the data give fraction unbound 0.06.
For C[C@@H](Oc1ccc(CNC(=O)c2cccnc2Oc2ccc3c(c2)OCO3)c(F)c1)C(=O)O the data give fraction unbound 0.0414.
For CCCCCOc1ccc(-c2cc(-c3ccc(C(=O)N[C@H]4C[C@@H](O)[C@@H](O)NC(=O)[C@@H]5[C@@H](O)[C@@H](C)CN5C(=O)[C@H]([C@H](O)CC(N)=O)NC(=O)C([C@H](O)[C@@H](O)c5ccc(O)c(OS(=O)(=O)O)c5)NC(=O)[C@@H]5C[C@@H](O)CN5C(=O)C([C@@H](C)O)NC4=O)cc3)no2)cc1 (stereo partly specified) [Micafungin] the data give fraction unbound 0.003312.
For CC1CCN(CCCC(=O)c2ccc(F)cc2)CC1 [Methylperone] the data give fraction unbound 0.5.
For C=CC[N+]1([C@H]2C[C@H]3[C@@H]4CC[C@H]5C[C@H](O)[C@@H](N6CCOCC6)C[C@]5(C)[C@H]4CC[C@]3(C)[C@H]2OC(C)=O)CCCC1 [Rocuronium] the data give fraction unbound 0.58.
For COc1cc([C@@H]2c3cc4c(cc3C(O[C@@H]3O[C@@H]5COC(c6cccs6)O[C@H]5[C@H](O)[C@H]3O)C3COC(=O)[C@@H]32)OCO4)cc(OC)c1O (some centres undefined) [Teniposide] the data give fraction unbound 0.003767.
For CCC(C)(C)NCC(O)COc1ccccc1C(=O)CCc1ccccc1 (racemic) the data give fraction unbound 0.0175.
For Cc1cccc(N2CC(CO)OC2=O)c1 (configuration not stated) [Toloxatone] the data give fraction unbound 0.4925.
For CCCOC(=O)c1cc(O)c(O)c(O)c1 [Propyl gallate] the data give fraction unbound 0.0258.
For Cc1cccc(C)c1NC(=O)C1CCCCN1C (configuration not stated) [Mepivacaine] the data give fraction unbound 0.265.
For CO[C@@H]1CN(CCn2c(=O)ccc3ccc(C#N)cc32)CC[C@H]1NCc1ccc2c(n1)NC(=O)CO2 the data give fraction unbound 0.3837.
For N=C(N)NCCC[C@H](NC(=O)[C@@H]1CCCN1C(=O)[C@@H]1CSSC[C@H](N)C(=O)N[C@@H](Cc2ccc(O)cc2)C(=O)N[C@@H](Cc2ccccc2)C(=O)N[C@@H](CCC(N)=O)C(=O)N[C@@H](CC(N)=O)C(=O)N1)C(=O)NCC(N)=O [Argipressin] the data give fraction unbound 0.98.
For CCC[C@H](N[C@@H](C)C(=O)N1[C@H](C(=O)O)C[C@@H]2CCCC[C@@H]21)C(=O)OCC [Perindopril] the data give fraction unbound 0.4.
For CO/N=C(\C(=O)N[C@@H]1C(=O)N2C(C(=O)[O-])=C(C[n+]3cccc4c3CCC4)CS[C@H]12)c1csc(N)n1 [Cefpirome] the data give fraction unbound 0.8983.
For CCOC(=O)[C@H](CCc1ccccc1)N[C@@H](C)C(=O)N1C(=O)N(C)C[C@H]1C(=O)O [Imidapril] the data give fraction unbound 0.8.
For C[C@]12C=CC(=O)C=C1C(Cl)=C[C@@H]1[C@@H]2[C@@H](O)C[C@@]2(C)[C@H]1CC[C@]2(O)C(=O)CO [Cloprednol] the data give fraction unbound 0.2.
For C#C[C@]1(O)CC[C@H]2[C@@H]3CCc4cc(O)ccc4[C@H]3CC[C@@]21C [17alpha-Ethinylestradiol] the data give fraction unbound 0.018.
For CC(Oc1ccccc1)C(=O)N[C@@H]1C(=O)N2[C@@H]1SC(C)(C)[C@@H]2C(=O)O (stereo partly drawn) [Phenethicillin] the data give fraction unbound 0.25.
For CCCCCC the data give fraction unbound 0.1931.
For Cc1ncc([N+](=O)[O-])n1CC(O)CCl (configuration not stated) [Ornidazole] the data give fraction unbound 0.85.
For CCOc1ccc2ccccc2c1C(=O)N[C@@H]1C(=O)N2[C@@H]1SC(C)(C)[C@@H]2C(=O)O [Nafcillin] the data give fraction unbound 0.1243.
For CCOC(C)(C)C the data give fraction unbound 0.7626.
For Cc1cccc(C)c1NC(=O)NCCCNC(C)C [Recainam] the data give fraction unbound 0.86.
For Cc1nc(NS(=O)(=O)c2ccc(N)cc2)oc1C [Sulfamoxole] the data give fraction unbound 0.3.
For COc1cc2c(cc1OC)[C@@H](Cc1cc(OC)c(OC)c(OC)c1)[N+](C)(CCCOC(=O)CC/C=C/CCC(=O)OCCC[N+]1(C)CCc3cc(OC)c(OC)cc3[C@H]1Cc1cc(OC)c(OC)c(OC)c1)CC2 (stereo partly specified) [Mivacurium] the data give fraction unbound 0.7.
For Fc1ccc(C(c2ccc(F)cc2)N2CCN(C/C=C/c3ccccc3)CC2)cc1 [Flunarizine] the data give fraction unbound 0.05.
For CC(C)OC(=O)OC(C)OC(=O)C1=C(CS[C@@H]2[C@H](NC(=O)/C(=NOC)/c3c[s]c(N)[n]3)C(=O)N12)COC (stereo partly specified) the data give fraction unbound 0.71.
For Cc1cn([C@@H]2C[C@@H](O)[C@H](CO)O2)c(=O)[nH]c1=O [Telbivudine] the data give fraction unbound 0.967.
For CCCN[C@H]1CCc2nc(N)sc2C1 [Pramipexole] the data give fraction unbound 0.85.
For Cc1cc(CC(=O)O)n(C)c1C(=O)c1ccc(Cl)cc1 the data give fraction unbound 0.0175.
For NS(=O)(=O)c1ccc(S(=O)(=O)Nc2cccc3c(Cl)c[nH]c23)cc1 [Indisulam] the data give fraction unbound 0.02.
For CCN(CCO)CCCC(C)Nc1ccnc2cc(Cl)ccc12 (configuration not stated) [Hydroxychloroquine] the data give fraction unbound 0.5533.

Excerpt, the final 5 entries:

The entry for Cc1cn([C@@H]2C[C@@H](O)[C@H](CO)O2)c(=O)[nH]c1=O [Telbivudine] lists fraction unbound 0.967.
The entry for CCCN[C@H]1CCc2nc(N)sc2C1 [Pramipexole] lists fraction unbound 0.85.
The entry for Cc1cc(CC(=O)O)n(C)c1C(=O)c1ccc(Cl)cc1 lists fraction unbound 0.0175.
The entry for NS(=O)(=O)c1ccc(S(=O)(=O)Nc2cccc3c(Cl)c[nH]c23)cc1 [Indisulam] lists fraction unbound 0.02.
The entry for CCN(CCO)CCCC(C)Nc1ccnc2cc(Cl)ccc12 (configuration not stated) [Hydroxychloroquine] lists fraction unbound 0.5533.